Assay results from patent US20260382588A1, “COMPOUNDS CONTAINING A HYDROXYPHENYL MOIETY AND THEIR USE” (published 2026).

Chains of the proteins cited; added tags and fusions are not shown. Residues count along the entry.
UniProt O75460, 465-977 limits assumed: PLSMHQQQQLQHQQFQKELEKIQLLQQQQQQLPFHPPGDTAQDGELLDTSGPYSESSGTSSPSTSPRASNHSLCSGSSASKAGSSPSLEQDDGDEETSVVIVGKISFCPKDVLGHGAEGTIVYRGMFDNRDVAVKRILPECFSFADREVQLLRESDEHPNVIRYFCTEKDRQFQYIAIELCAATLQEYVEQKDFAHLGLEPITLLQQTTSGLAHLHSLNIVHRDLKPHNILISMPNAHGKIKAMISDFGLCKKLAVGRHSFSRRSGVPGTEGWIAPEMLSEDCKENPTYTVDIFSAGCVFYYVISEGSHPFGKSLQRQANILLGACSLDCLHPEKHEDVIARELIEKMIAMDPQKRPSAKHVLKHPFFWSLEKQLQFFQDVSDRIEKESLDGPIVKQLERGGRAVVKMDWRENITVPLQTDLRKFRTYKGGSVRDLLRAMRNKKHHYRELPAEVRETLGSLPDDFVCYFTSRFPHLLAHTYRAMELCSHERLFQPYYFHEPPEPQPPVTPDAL
UniProt O75460, 19-977 limits assumed: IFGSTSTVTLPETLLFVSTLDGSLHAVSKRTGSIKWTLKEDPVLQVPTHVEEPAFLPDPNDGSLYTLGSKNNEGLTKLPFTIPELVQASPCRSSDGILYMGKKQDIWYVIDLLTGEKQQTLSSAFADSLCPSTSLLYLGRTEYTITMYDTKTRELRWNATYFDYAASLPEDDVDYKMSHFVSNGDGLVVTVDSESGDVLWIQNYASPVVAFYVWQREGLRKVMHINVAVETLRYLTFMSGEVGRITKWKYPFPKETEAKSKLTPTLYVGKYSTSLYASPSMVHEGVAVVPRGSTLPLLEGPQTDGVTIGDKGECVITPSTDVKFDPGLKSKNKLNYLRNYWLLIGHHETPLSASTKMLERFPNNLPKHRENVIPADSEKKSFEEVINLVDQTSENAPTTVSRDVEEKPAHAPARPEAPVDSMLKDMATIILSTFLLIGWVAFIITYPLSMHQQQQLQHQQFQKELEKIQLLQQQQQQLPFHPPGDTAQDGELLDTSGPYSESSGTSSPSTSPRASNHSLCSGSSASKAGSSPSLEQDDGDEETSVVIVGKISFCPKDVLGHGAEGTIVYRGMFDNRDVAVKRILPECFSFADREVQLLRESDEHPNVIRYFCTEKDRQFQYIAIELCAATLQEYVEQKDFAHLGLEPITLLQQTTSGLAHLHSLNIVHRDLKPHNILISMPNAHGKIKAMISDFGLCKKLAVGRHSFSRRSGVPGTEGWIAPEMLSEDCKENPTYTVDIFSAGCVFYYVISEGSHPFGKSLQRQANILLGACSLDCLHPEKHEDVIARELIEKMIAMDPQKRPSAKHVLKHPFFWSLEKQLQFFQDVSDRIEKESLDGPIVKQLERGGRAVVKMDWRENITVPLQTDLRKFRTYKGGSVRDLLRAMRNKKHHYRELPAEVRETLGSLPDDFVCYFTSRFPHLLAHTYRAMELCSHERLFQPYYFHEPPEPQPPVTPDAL

Legend:
[1] = test system: U87-luc orthotopic GB tumors; assay: Orthotopic U87-luc GB mouse model: tumor growth, survival and relapse; conditions: TMZ alone 10 mg/kg, over 200 days (FIG. 5D)
Text: Tumor cell orthotopic implantation—Tumor cells (U87-Luc (A. Jabouille, et al., Oncotarget, 2015, 6, 24922-24934)) were implanted into the brain of immunodeficient NMRI-Foxnlnu/Foxn1nu, 8 weeks old male mice (Janvier Laboratories, Laval, France). All animal procedures met the European Community Directive guidelines (Agreement B35-238-40 Biosit Rennes, France/No DIR 13480) and were approved by the local (University of Rennes) ethics committee and ensuring the breeding and the daily monitoring of the animals in the best conditions of wellbeing according to the law and the rule of 3R (Reduce-Refine-Replace). U87-Luc cells were implanted in the mouse brain by intracerebral injection followed by tumor growth monitoring using bioluminescence (PhotonIMAGER™ systems, BIOSPACE LAB). The mice were anesthetized intraperitoneally (i.p. mix Xylazine 10 mg/kg and Ketamin 60 mg/kg) and then fixed on a stereotactic frame. This framework makes it possible to manipulate the brains of living animals, and to reach isolated areas of the brain precisely relative to markings visible to the naked eye through the use of three-dimensional coordinates. After incising the scalp, the stereotaxic coordinates were calculated for injection of tumor cells into a specific point of the brain, and reproducible for all the mice used. In the study, the tumor cells (5×10^4 cells per mice in 1 μL) were injected at Bregma 0, 2.2 mm to the left of the bregma and 3.2 mm deep to perform the implantation at the level of the striatum.
Mouse treatments—Four days after tumor cells implantation, compound 28 (Z4P) treatments were started consisting in treatments of 300 μg/kg/day intraperitonially. For the RNA quantification experiment, performed on tumors generated in mice, three mice per group were treated according to the methods above. Mice were sacrificed at day 34 and the brains were removed and extract the tumor. The samples were used to extract RNA for the analysis, as described below.
For the survival experiment, performed on tumors generated in mice, co-treatment with TMZ was performed one week after the beginning of compound 33 (Z4) treatment (n=7 per group for the TMZ and COMBO, n=8 per group for the control and compound 28 (Z4P)). The animals were injected with 10 mg/kg/day of TMZ delivered intraperitoneally for ten days. All the treatments were performed with 2 days of rest each week. Survival was measured as the time between implantation and sacrifice, which was performed by cervical dislocation in case of critical clinical signs or loss of weight >10%.
Bioluminescence monitoring—Mice were evaluated with in vivo bioluminescence imaging every 3 days starting from the day 4, for the first week, and weekly onward for tumor progression and followed for signs of neurologic deterioration daily. […]

IRE1 [2] = molecular target: T1, IRE1 (Homo sapiens, UniProt O75460); assay: IRE1-mediated in vitro RNase assay (FRET-quenched mini Xbp1 RNA probe); conditions: read-out: IC50 (RNase); Table 5
Text: (§1) Materials—IRE1 wild-type recombinant protein encoding the cytoplasmic domain (amino acids 465-977) with N-terminal polyhistidine-tag and GST tag was from Sinobiological (Sino Biological Europe GmbH, Eschborn, Germany, #11905-H20B). The fluorescent probe used for the in vitro IRE1 RNase assay was from Eurogentec. Tunicamycin was purchased from Calbiochem (Merck KGaA, Darmstadt, Germany). All the inhibitors were synthesized by and purchased from Enamine (Riga, Latvia).
IRE1-mediated in vitro RNase assay—Organic molecules (Compounds 28 (Z4P), and 33 (Z4), 34 (Z4A), 35 (Z4B), 36 (Z4C), 37 (Z4D) and 38 (Z4E)) were diluted in minimal volume of DMSO and subsequently re-diluted in reaction buffer (20 mM HEPES pH 7.5; 1 mM MgOAc; 50 mM KOAc). Maximum volume of DMSO per reaction never exceeded 1%. Reaction volume was 25 μL. Recombinant IRE1 (0.6 μg/reaction) was incubated at room temperature for 10 minutes with varying concentrations (0-100 μM) of inhibitor and reaction buffer. The assay relied on the use of fluorescence resonance energy transfer (FRET)—quenched mini Xbp1 RNA substrate probe, which when cleaved by IRE1 emits fluorescence at 590 nm (cy3) wavelength (F. Prischi et al., Nature Communications, 2014, 5, 3554). Subsequently equal volume of mixture of reaction buffer, 20 mM ATP, 2 mM DTT and 1 μg of fluorescent probe were added to each sample and fluorescence was read in 96 well plates flat bottom, black polystyrene, matrix active group High Bind (Corning®) every minute for 25 minutes, at 37 °C, using a Tecan 200 plate reader.

IRE1 [3] = molecular target: T1, IRE1; assay: Luciferase assay in cells; conditions: read-out: IC50 (Luciferase); Table 5
Protocol: Luciferase assays—Cells were seeded in 96-well plate. Cells were treated with increasing concentration of Z4 and analogues. Medium was discarded and the plate was tapped to remove residual medium. 100 μL of lysis buffer (25 mM Tricine pH 7.8; 15 mM Potassium Phosphate pH 7.8; 15 mM MgSO4; 4 mM EGTA; 1% Triton X-100; 1 mM DTT) were added per well and incubated for 20 minutes at RT. 50 μL were transferred to a white 96-well plate and 50 μL of substrate buffer (25 mM Tricine pH 7.8; 15 mM Potassium Phosphate pH 7.8; 15 mM MgSO4; 4 mM EGTA; 1% Triton X-100; 1 mM DTT; 1 mM ATP; 0.2 mM luciferin) were added in each well and the luminescence was read.
IRE1—Mediated In Vitro RNase Assay and Luciferase Assay

IRE1 [4] = molecular target: T1, IRE1; assay: MicroScale Thermophoresis (MST) direct binding to recombinant IRE1; conditions: for difference in KD between enantiomers: S-28 versus R-28, MST; for Kd: recombinant IRE1, MST, one-site saturation binding, data not shown
Text: as §1
MicroScale Thermophoresis13 The direct binding of compound 33 (Z4) and compound 28 (Z4P) to IRE1 protein was measured using MicroScale Thermophoresis (MST). IRE recombinant protein was labelled using RED-Tris-NTA fluorescent dye (RED-Tris-NTA 2nd Generation, NanoTemper, Munich, Germany; #MO-L018). For the labelling step, 100 μL of 20 nM protein solution is mixed with 100 μL of 10 nM RED-Tris-NTA dye in PBST buffer (PBS with 0.05% Tween-20) and incubated for 30 min at RT. The protein—dye mixture was centrifuged for 10 min at 4C and 15 000×g. For measurement of direct binding, the compounds were analyzed in a 16-point dilution series mixed in a 1:1 ratio with the labelled protein in PBST buffer. The assay was performed in standard Monolith NT.115
Capillaries (NanoTemper; #MO-K022), and all measurements were performed at 60% MST power and 60% excitation power using the Monolith NT. 115 Pico machine (NanoTemper). The dissociation constant (Kd) was calculated by taking the average of triplicate normalized fluorescence data using NANOTEMPER analysis software (MO.Affinity Analysis v2.3). The normalized values were converted to fraction-bound data, and the resulting binding curves are plotted using GRAPHPAD PRISM software (GraphPad Software).
To monitor the interaction between IRE1 and the compounds, micro-scale thermophoresis (MST) was used with recombinant IRE1 and increasing concentrations of compound 33 (Z4) and compound 28 (Z4P) (racemic mixtures) and the pure compound 28 (Z4P) enantiomers. […] To this end, the racemic compound was synthesized and the enantiomers separated by chiral chromatography. […] Additionally, compounds 28 (Z4P), 33 (Z4), 34 (Z4A), 35 (Z4B), 36 (Z4C), 37 (Z4D) and 38 (Z4E) were tested for inhibitory activity using a fluorescence resonance energy transfer (FRET)—quenched IRE1 RNA substrate probe and yielded IC50s in the low micromolar range (FIG. 1).

Compound | IC50 (IRE1 [2]) [µM] | IC50 (IRE1 [3]) [µM] | further results
Cn1nnc2c(C(N)=O)ncn2c1=O | – | – | tumor relapse, TMZ alone [1]: relapsed
Cc1ccc(C)c(NC(=O)NC(C)C#Cc2ccc(O)cc2)c1 (stereo not shown) | 1.92 | – | –
Cc1ccc(C)c(NC(=O)Nc2ccc(-c3cccc(O)c3)cc2)c1 | 0.27 | 1.04 | –
Cc1ccc(C)c(CC(=O)NC(C)CCc2ccc(O)cc2)c1 (stereo not shown) | 0.57 | 0.593 | –
CC(CCc1ccc(O)cc1)NC(=O)Nc1ccc2c(c1)OCO2 (stereo not shown) | 0.299 | 3.26 | –
Cc1ccc(C)c(NC(=O)NC(C)(C)C#Cc2cccc(O)c2)c1 | 0.342 | 7.75 | –
Cc1ccc(C)c(NC(=O)NCCCc2ccc(O)cc2)c1 | 1.84 | – | –
Cc1ccc(C)c(NC(=O)Nc2ccn(-c3ccc(O)cc3)c2)c1 | – | 0.93 | –
Cc1ccc(C)c(NC(=O)NC(C)C#Cc2cccc(O)c2)c1 (stereo not shown) | 0.16 | – | –
Cc1ccc(C)c(NC(=O)NC2CCN(c3ccc(O)cc3)CC2)c1 | 0.25 | 10.9 | –
CCc1ccccc1NC(=O)NC(C)CCc1ccc(O)cc1 (stereo not shown) | 2.55 | – | –
CC(CCc1ccc(O)cc1)NC(=O)Nc1ccccc1C(C)(C)C (stereo not shown) | 2.09 | – | –
Cc1ccc(C)c(NC(=O)Nc2cn(-c3ccc(O)cc3)c3ccccc23)c1 | 0.068 | – | –
Cc1ccc(C)c(NC(=O)N[C@H](C)CCc2ccc(O)cc2)c1 (single isomer, unassigned) | 0.2 | – | difference in KD between enantiomers (IRE1 [4]): 2 fold; Kd (IRE1 [4]): 29 µM
Cc1ccc(C)c(NC(=O)N2CCN(c3cccc(O)c3)CC2)c1 | 0.88 | – | –
C=C(C)c1c(NC(=O)Nc2cc(C)ccc2C)c2ccccc2n1-c1ccc(O)cc1 | 0.32 | 14.3 | –
Cc1ccc(C)c(OC(=O)NC(C)CCc2ccc(O)cc2)c1 (stereo not shown) | 1.21 | 0.868 | –
Cc1cc(C)cc(NC(=O)NC(C)CCc2ccc(O)cc2)c1 (stereo not shown) | 0.14 | 1.17 | –
Cc1ccc(C)c(NC(=O)N[C@@H](C)CCc2ccc(O)cc2)c1 (single isomer, unassigned) | 0.17 | – | difference in KD between enantiomers (IRE1 [4]): 2 fold; Kd (IRE1 [4]): 60 µM
Cc1ccc(C)c(NC(=O)OC(C)CCc2ccc(O)cc2)c1 (stereo not shown) | 0.37 | – | –

Compound | IC50 (IRE1 [2]) [µM] | IC50 (IRE1 [3]) [µM] | further results
Cc1ccc(C)c(NC(=O)Nc2cccc(-c3ccc(O)cc3)n2)c1 | 1.14 | 1.89 | –
Cc1ccc(C)c(NC(=O)NC2CCCN(c3ccc(O)cc3)C2)c1 (stereo not shown) | 0.96 | 24.9 | –
Cc1ccc(C)c(NC(=S)NC(C)CCc2ccc(O)cc2)c1 (stereo not shown) | 0.37 | 3.47 | –
CC(CCc1ccc(O)cc1)NC(=O)Nc1cccc(C(C)C)c1 (stereo not shown) | 0.58 | 0.169 | –
Cc1ccc(C)c(NC(=O)N(C)C(C)CCc2ccc(O)cc2)c1 (stereo not shown) | 1.5 | 41.4 | –
Cc1ccc(C)c(CNC(=O)NCCc2ccc(O)cc2)c1 | 2.17 | 6.83 | –
Cc1ccc(C)c(NC(=O)NC2CCCC(c3ccc(O)cc3)C2)c1 (stereo not shown) | 8.07 | 1.92 | –
Cc1ccc(NC(=O)NC(C)CCc2ccc(O)cc2)cc1 (stereo not shown) | 1.14 | 8.06 | –
Cc1ccc(C)c(NC(=O)Nc2ccc(-c3ccc(O)cc3)cc2)c1 | 2.2 | – | –
Cc1ccc(C)c(NC(=O)NC2CCC(c3ccc(O)cc3)CC2)c1 (stereo not shown) | 12.8 | – | –
CC(CCc1ccc(O)cc1)NC(=O)Nc1ccc2ncsc2c1 (stereo not shown) | 4.02 | – | –
Cc1ccc(C)c(NC(=O)NC(C)(C)CCc2ccc(O)cc2)c1 | 1.22 | – | –
Cc1ccc(C)c(NC(=O)NCCc2ccc(O)cc2)c1 | 1.55 | – | –
Cc1ccc(C)c(NC(=O)NCC#Cc2ccc(O)cc2)c1 | 0.799 | – | –
Cc1ccc(C)c(NC(=O)NCC#Cc2cccc(O)c2)c1 | 5.16 | – | –
Cc1ccc(C)c(CNC(=O)NCc2ccc(O)cc2)c1 | 0.825 | – | –
CC(CCc1ccc(O)cc1)NC(=O)Nc1ccccc1 (stereo not shown) | 0.809 | 16.7 | –
CC(CCc1ccc(O)cc1)NC(=O)Nc1cccc(C2CC2)c1 (stereo not shown) | 1.14 | 4.84 | –
1-(2,5-dimethylphenyl)-3-(6-(3- hydroxyphenyl)pyridin-3-yl)urea | 1.57 | 1.71 | –
Cc1cccc(NC(=O)NC(C)CCc2ccc(O)cc2)c1 (stereo not shown) | 0.451 | 13 | –
